# In paper PMC8693618 (Bioorganic & medicinal chemistry, 2021):
# Amino acid sequences for entries named in this document (tags omitted). A change or cut given only in a name is not applied to a line headed by its entry.
# UniProt Q9H999: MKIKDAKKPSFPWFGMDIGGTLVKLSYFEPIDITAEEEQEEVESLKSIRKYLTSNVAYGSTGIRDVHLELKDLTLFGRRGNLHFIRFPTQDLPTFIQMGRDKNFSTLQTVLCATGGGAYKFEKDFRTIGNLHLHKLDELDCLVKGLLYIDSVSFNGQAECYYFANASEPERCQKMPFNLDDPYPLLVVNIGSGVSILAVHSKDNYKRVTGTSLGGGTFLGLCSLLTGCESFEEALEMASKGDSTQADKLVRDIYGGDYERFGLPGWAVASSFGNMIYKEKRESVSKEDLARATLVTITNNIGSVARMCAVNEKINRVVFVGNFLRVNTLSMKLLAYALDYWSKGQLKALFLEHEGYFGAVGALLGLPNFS
# Molecular target: human PANK3 (Homo sapiens, UniProt Q9H999)
row,Structure (SMILES),LipE
1,"CC(C)c1ccc(NC(=O)N2CCN(c3ccc([N+](=O)[O-])cn3)CC2)cc1 [Compound 40, N-(4-isopropylphenyl)-4-(5-nitropyridin-2-yl)piperazine-1-carboxamide]",4.49
2,"CC(C)c1ccc(NC(=O)N2CCN(c3ccc(C(F)(F)F)cn3)CC2)cc1 [Compound 41, N-(4-isopropylphenyl)-4-(5-(trifluoromethyl)pyridin-2-yl)piperazine-1-carboxamide]",1.88
3,"CC(=O)c1ccc(N2CCN(C(=O)Nc3ccc(C(C)C)cc3)CC2)cc1 [Compound 44, 4-(4-acetylphenyl)-N-(4-isopropylphenyl)piperazine-1-carboxamide]",1.46
4,"CC(C)c1ccc(NC(=O)N2CCN(c3ncc(Br)cn3)CC2)cc1 [Compound 50, 4-(5-bromopyrimidin-2-yl)-N-(4-isopropylphenyl) piperazine-1-carboxamide]",3.42
5,"Cc1ccc(N2CCN(C(=O)Nc3ccc(C(C)C)cc3)CC2)nc1 [Compound 36, N-(4-isopropylphenyl)-4-(5-methylpyridin-2-yl) piperazine-1-carboxamide]",2.04
6,"CC(C)c1ccc(NC(=O)N2CCN(c3ccc(Br)cn3)CC2)cc1 [Compound 42, 4-(5-bromopyridin-2-yl)-N-(4-isopropylphenyl) piperazine-1-carboxamide]",2.44
7,"CC(C)c1ccc(CC(=O)N2CCN(c3cnc(Cl)cn3)CC2)cc1 [Compound 55, 1-(4-(5-chloropyrazin-2-yl)piperazin-1-yl)-2-(4-isopropylphenyl)ethan-1-one]",5.05
8,"CC(C)c1ccc(NC(=O)N2CCN(c3ccc(Cl)cn3)CC2)cc1 [Compound 43, 4-(5-chloropyridin-2-yl)-N-(4-isopropylphenyl) piperazine-1-carboxamide]",2.60
9,"CC(C)c1ccc(NC(=O)N2CCN(c3ccccn3)CC2)cc1 [Compound 35, N-(4-isopropylphenyl)-4-(pyridin-2-yl)piperazine-1-carboxamide]",2.18
10,"CC(C)c1ccc(NC(=O)N2CCN(c3ncccc3C#N)CC2)cc1 [Compound 38, 4-(3-cyanopyridin-2-yl)-N-(4-isopropylphenyl) piperazine-1-carboxamide]",3.17
11,"CC(C)c1ccc(NC(=O)N2CCN(c3ccc(C#N)nn3)CC2)cc1 [Compound 56, 4-(6-cyanopyridazin-3-yl)-N-(4-isopropylphenyl) piperazine-1-carboxamide]",> 6 and 6.48
12,"CC(C)c1ccc(CC(=O)N2CCN(c3nccc(Cl)n3)CC2)cc1 [Compound 51, 1-(4-(4-chloropyrimidin-2-yl)piperazin-1-yl)-2-(4-isopropylphenyl)ethan-1-one]",3.07
13,"CC(C)c1ccc(NC(=O)N2CCN(c3cccc(Cl)c3)CC2)cc1 [Compound 46, 4-(3-chlorophenyl)-N-(4-isopropylphenyl)piperazine-1-carboxamide]",0.65
14,"CC(C)c1ccc(NC(=O)N2CCN(c3cc(C#N)ccn3)CC2)cc1 [Compound 39, 4-(4-cyanopyridin-2-yl)-N-(4-isopropylphenyl) piperazine-1-carboxamide]",3.46
15,"CC(C)c1ccc(NC(=O)N2CCN(c3nccc(C#N)n3)CC2)cc1 [Compound 49, 4-(4-cyanopyrimidin-2-yl)-N-(4-isopropylphenyl) piperazine-1-carboxamide]",4.66
16,"CC(C)c1ccc(NC(=O)N2CCN(c3ccc(C#N)cn3)CC2)cc1 [Compound 5, 4-(5-cyanopyridin-2-yl)-N-(4-isopropylphenyl)piperazine-1-carboxamide]",3.37
17,"CC(C)c1ccc(NC(=O)N2CCN(c3cnc(C#N)cn3)CC2)cc1 [Compound 54, 4-(5-cyanopyrazin-2-yl)-N-(4-isopropylphenyl) piperazine-1-carboxamide]",5.33
18,"CC(C)c1ccc(CC(=O)N2CCN(c3cnc(C#N)nc3)CC2)cc1 [Compound 53, 5-(4-(2-(4-isopropylphenyl)acetyl)piperazin-1-yl) pyrimidine-2-carbonitrile]",5.34
19,"CC(C)c1ccc(NC(=O)N2CCN(c3ccc(Cl)nn3)CC2)cc1 [Compound 58, 4-(6-chloropyridazin-3-yl)-N-(4-isopropylphenyl) piperazine-1-carboxamide]",6.05
20,"CC(C)Cc1ccc(NC(=O)N2CCN(c3ccc(C#N)cn3)CC2)cc1 [Compound 7, N-(4-(sec-butyl)phenyl)-4-(5-cyanopyridin-2-yl) piperazine-1-carboxamide]",2.80
21,"CC(C)c1ccc(NC(=O)N2CCN(c3ccc(F)cc3)CC2)cc1 [Compound 45, 4-(4-fluorophenyl)-N-(4-isopropylphenyl)piperazine-1-carboxamide]",1.39
22,"CC(C)c1ccc(OC(=O)N2CCN(c3ccc(C#N)nn3)CC2)cc1 [Compound 61, 4-isopropylphenyl 4-(6-cyanopyridazin-3-yl)piperazine-1-carboxylate]",5.55
23,"CC(C)c1ccc(NC(=O)N2CCN(c3ccc(C#N)cc3)CC2)cc1 [Compound 48, 4-(4-cyanophenyl)-N-(4-isopropylphenyl)piperazine-1-carboxamide]",2.25
24,"CC(C)(C)c1ccc(NC(=O)N2CCN(c3ccc(C#N)cn3)CC2)cc1 [Compound 1, N-(4-(tert-butyl)phenyl)-4-(5-cyanopyridin-2-yl) piperazine-1-carboxamide]",2.8
25,"CC(C)c1ccc(NC(=O)N2CCN(c3cnc(C#N)nc3)CC2)cc1 [Compound 52, 4-(2-cyanopyrimidin-5-yl)-N-(4-isopropylphenyl) piperazine-1-carboxamide]",4.54

# Where “and” joins values, the source holds several entries; their conditions need not be identical. Equal entries are not always repeated.
